Results taken from patent US5187157A, “Peptide boronic acid inhibitors of trypsin-like proteases” (Du Pont Merck Pharmaceutical Company, priority 1988, dated 1993).

Columns and labels:
thrombin = details: literature; cited from earlier work
Human thrombin = target: T1, Human thrombin (Homo sapiens, UniProt P00734); assay: Inhibition of Thrombin (Esterase Activity); assay type: biochemical; details: inhibitor 5 nM; activity remaining 10 to 20 min after initiation
T1 construct: purchased R.Q.P. Laboratories, South Bend, IN Lot HT102
Protocol: In the Examples which follow, the hydrolytic activity of each enzyme is measured in both the presence and absence of inhibitor and the percent enzyme activity determined. […] A steady state is reached fairly rapidly and nears completion within 5 min. Activity is evaluated between 10-20 min after the components are mixed to insure that reaction components are at equilibrium. The lowest concentration of inhibitor tested is determined by the estimated concentration of enzyme. […] The maintenance of pseudo-first-order reaction conditions and the sensitivity of the respective assays sets the lowest limit level of inhibitor tested at 10 nM for kallikrein inhibitors and 5 nM for thrombin inhibitors.
A stock solution of thrombin was prepared in 0.010M PIPES Buffer, pH 6.0, containing 0.75 M sodium chloride. […] The initial concentration of substrate was 0.10 mM and the concentration of thrombin was 1.0 nM (based on weight).

Question: With `CC1CNc2c(cccc2S(=O)(=O)N[C@@H](CCCNC(=N)N)C(=O)N2CC[C@@H](C)C[C@@H]2C(=O)O)C1` (stereo partly drawn) [(2R,4R)-4-methyl-1[N^2 -{(3-methyl-1,2,3,4-tetrahydro-8-quinolinyl)sulfonyl}-L-arginyl]-2-piperid inecarboxylic acid] as the molecule, how does the Ki (thrombin) read?
Answer: 0.019 µM

Question: Which “Percent Activity” value (Human thrombin) does the source give for `CC(=O)N[C@H](Cc1ccccc1)C(=O)N1CCC[C@H]1C(=O)N[C@@H](CCCN=C(N)N)B(O)O.Cl` [Ac-(D)Phe-Pro-boroArg-OH, Ac-(D)Phe-Pro-boroArg-OH.HCl] here?
Answer: 3%
